Measured values published in patent US12247008B2, “Multi-aziridine compound” (COVESTRO (NETHERLANDS) B.V., priority 2020, dated 2025).

Tests used:
Rtkn-GFP = experiment: ToxTracker genotoxicity assay, Rtkn-GFP reporter induction
Bscl2-GFP = experiment: ToxTracker genotoxicity assay, Bscl2-GFP reporter induction
[1] = with S9 rat liver extract, 3 h exposure and 24 h recovery, at 50% cytotoxicity
[2] = without S9 rat liver extract, 24 h exposure, at 10% cytotoxicity
[3] = without S9 rat liver extract, 24 h exposure, at 50% cytotoxicity

C=CC(C)(CN1CC1C)OC(=O)NCCCCCC/N=c1\oc(=O)n(CCCCCCNC(=O)OC(C)(C=C)CN2CC2C)c(=O)n1CCCCCCNC(=O)OC(C)(C=C)CN1CC1C (centres unmarked) [Ex. 5]
Rtkn induction level (Rtkn-GFP; with S9 rat liver extract, 3 h exposure and 24 h recovery, at 10% cytotoxicity): 1.1 fold | Rtkn induction level (Rtkn-GFP; [1]): 1.4 fold | Rtkn induction level (Rtkn-GFP; [2]): 1.0 fold | Rtkn induction level (Rtkn-GFP; without S9 rat liver extract, 24 h exposure, at 25% cytotoxicity): 1.0 fold | Rtkn induction level (Rtkn-GFP; [3]): 1.1 fold | Bscl 2 induction level (Bscl2-GFP; [1]): 1.7 fold | Bscl 2 induction level (Bscl2-GFP; [2]): 1.3 fold | Bscl 2 induction level (Bscl2-GFP; [3]): 1.7 fold
